Reference: BindingDB's records for doi:10.1021/ml200239k (2012)

Target: T1, Tyrosine-protein kinase receptor TYRO3 (Homo sapiens, UniProt Q06418)
T1 sequence (Q06418 whole entry): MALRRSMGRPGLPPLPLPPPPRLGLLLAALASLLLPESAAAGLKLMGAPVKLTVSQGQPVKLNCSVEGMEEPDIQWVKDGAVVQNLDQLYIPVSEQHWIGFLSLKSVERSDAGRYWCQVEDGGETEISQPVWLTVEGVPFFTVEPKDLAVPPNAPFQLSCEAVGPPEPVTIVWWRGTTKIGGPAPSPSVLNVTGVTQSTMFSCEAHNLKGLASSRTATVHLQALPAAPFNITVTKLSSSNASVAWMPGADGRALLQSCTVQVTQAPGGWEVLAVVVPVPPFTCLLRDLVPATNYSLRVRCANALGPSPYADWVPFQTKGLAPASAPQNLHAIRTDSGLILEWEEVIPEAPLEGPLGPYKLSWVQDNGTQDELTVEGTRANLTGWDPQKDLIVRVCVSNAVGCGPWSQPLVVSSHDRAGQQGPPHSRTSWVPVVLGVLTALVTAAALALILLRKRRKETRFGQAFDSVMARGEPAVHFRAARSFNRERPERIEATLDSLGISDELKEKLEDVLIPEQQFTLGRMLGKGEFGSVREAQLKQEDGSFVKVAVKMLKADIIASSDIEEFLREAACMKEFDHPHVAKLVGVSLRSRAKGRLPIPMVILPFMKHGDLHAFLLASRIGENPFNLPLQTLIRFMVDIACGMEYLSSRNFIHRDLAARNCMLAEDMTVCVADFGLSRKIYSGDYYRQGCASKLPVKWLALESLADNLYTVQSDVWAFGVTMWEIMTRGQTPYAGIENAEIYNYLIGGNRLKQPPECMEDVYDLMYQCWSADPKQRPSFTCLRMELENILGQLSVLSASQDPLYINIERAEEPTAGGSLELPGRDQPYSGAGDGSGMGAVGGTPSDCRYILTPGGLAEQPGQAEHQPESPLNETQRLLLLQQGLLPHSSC
Experiment: Inhibition of Tyro3 using EFPIYDFLPAKKK-CONH2 as substrate after 180 mins by microfluid capillary electrophoresis assay

## CNc1ncc2c(C(C)C)nn(CC3CCCNC3)c2n1 (stereo unspecified)
  pIC50: < 4.52

pIC50: −log10 of the molar value.
